By UniProt entry, the sequences of proteins in these tests, tags left out. Residues count along the entry.
UniProt P10721, 26-976 limits assumed: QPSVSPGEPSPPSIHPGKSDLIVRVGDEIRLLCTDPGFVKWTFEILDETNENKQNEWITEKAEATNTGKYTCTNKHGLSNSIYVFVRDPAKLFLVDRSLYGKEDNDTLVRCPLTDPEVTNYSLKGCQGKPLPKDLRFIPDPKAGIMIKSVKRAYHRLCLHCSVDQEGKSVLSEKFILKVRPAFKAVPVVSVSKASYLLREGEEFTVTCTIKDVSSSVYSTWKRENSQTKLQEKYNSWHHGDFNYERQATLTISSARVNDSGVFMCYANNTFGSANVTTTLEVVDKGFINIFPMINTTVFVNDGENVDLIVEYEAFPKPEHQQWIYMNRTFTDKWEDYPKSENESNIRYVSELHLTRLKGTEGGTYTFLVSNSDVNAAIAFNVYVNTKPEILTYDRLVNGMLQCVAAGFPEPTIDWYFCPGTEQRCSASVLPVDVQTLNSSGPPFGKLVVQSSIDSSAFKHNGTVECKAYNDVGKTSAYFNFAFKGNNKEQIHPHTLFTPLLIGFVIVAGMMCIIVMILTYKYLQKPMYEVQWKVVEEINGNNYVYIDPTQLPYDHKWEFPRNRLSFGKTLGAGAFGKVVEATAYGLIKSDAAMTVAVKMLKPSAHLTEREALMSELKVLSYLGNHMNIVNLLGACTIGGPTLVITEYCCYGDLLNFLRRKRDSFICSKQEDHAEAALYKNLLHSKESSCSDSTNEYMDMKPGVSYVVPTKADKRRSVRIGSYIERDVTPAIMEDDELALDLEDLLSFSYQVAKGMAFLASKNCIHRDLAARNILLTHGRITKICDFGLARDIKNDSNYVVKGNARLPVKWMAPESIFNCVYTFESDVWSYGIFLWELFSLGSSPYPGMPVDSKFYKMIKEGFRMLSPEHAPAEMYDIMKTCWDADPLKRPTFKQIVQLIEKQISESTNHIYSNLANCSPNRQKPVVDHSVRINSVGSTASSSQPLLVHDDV

In patent US8754071B2 (priority 2011, dated 2014):

Target: c-kit (Homo sapiens, UniProt P10721)
Test: Mo7e cell proliferation assay (SCF dependent proliferation)
Assay type: cell-based
Conditions: read-out: c-kit (Mo7e) μM; Table 2; human Mo7e cells stimulated with SCF, 48 hours, CellTiter Glo; 1% FBS
Protocol: Mo7e Cell Proliferation Assay The compounds of Table 1 and Table 2 were tested for inhibition of SCF dependent proliferation using human Mo7e cells which endogenously express c-kit in a 384 well format. […] After 48 hours of incubation at 37° C., cell viability was measured by adding 25 uL of CellTiter Glo (Promega) to the cells and the luminescence was measured by a […] camera (Molecular Devices). […] The IC50 value is given as that concentration of the test compound in question that provoke a response halfway between the baseline and maximum responses.

## Cc1ccc(-c2noc(CN3CC(C#N)C3)n2)cc1NC(=O)c1cnc2ccc(-c3cnn(CC(C)(C)O)c3)cn12
  IC50: 0.146 µM
